In article PMC4386917:

Target: Recombinant N-hexa-His-tagged human Hsp70 (HSPA1A) (human) (UniProt P0DMV8)
Assay: SPR; Biacore X100, CM5 chip; Hsp70 immobilised by amine coupling; αSyn as analyte at 0-320 µM; 15°C; PBS, 0.05% Surfactant P20, 2 mM MgCl2, 2.5 mM ATP; steady-state fit, 1:1 model

Kd: 192 µM
Substance: Human Wt α-Synuclein (from UniProt P37840 1-140) (natural protein; other documents disagree on this pair)
